Source: patent publication US20170281720A1 (published 2017)

Protein sequences, listed by entry. Tags and fused reporters are not part of them. Residues count along the entry.
UniProt Q00987, 1-125 limits assumed: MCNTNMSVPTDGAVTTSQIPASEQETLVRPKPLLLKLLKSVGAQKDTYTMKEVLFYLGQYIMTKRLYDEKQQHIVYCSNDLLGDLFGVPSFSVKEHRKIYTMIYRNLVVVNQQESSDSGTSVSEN

What was measured:
MDM2 (In-house, 41 kD) = biological target: T1, MDM2 (In-house, 41 kD) (UniProt Q00987 1-125, limits assumed); test: fluorescence polarization, direct binding, MDM2 titrated against 10 nM labeled peptide
T1 construct: only 'In-house, 41 kD'; also called HDM2

MDMX (In-house, 40 kD) = biological target: T2, MDMX (In-house, 40 kD) (UniProt O15151 1-120, limits assumed); test: fluorescence polarization, direct binding, MDMX titrated against 10 nM labeled peptide
T2 construct: only 'In-house, 40 kD'; also called MDM4
T2 sequence (looked up): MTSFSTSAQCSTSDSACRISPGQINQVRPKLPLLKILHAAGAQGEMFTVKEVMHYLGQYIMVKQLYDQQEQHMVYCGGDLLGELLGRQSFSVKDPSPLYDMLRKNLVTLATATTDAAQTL

Kd (MDM2 (In-house, 41 kD)): ~13.4 nM
Kd (MDMX (In-house, 40 kD)): ~51 nM
B1: 5-FAM-BaLTFEHYWAQLTS-NH2 (peptide)
peptide: ALTFEHYWAQLTS
modifications: N-terminal 5-FAM; Ba = beta-alanine after the label; C-terminal amide (NH2)
notes: Linear (not crosslinked) fluorescent tracer of the FP assays; also called FAM labeled linear peptide
